The values below are quoted from earlier work in patent US6663886B2, “Inhibition of cell-cell binding by lipid assemblies” (Regents of the University of California, priority 1997, dated 2003).

Series [1] concerns the target T1, P-selectin (Homo sapiens, UniProt P16109).
T1 sequence (P16109 42-830): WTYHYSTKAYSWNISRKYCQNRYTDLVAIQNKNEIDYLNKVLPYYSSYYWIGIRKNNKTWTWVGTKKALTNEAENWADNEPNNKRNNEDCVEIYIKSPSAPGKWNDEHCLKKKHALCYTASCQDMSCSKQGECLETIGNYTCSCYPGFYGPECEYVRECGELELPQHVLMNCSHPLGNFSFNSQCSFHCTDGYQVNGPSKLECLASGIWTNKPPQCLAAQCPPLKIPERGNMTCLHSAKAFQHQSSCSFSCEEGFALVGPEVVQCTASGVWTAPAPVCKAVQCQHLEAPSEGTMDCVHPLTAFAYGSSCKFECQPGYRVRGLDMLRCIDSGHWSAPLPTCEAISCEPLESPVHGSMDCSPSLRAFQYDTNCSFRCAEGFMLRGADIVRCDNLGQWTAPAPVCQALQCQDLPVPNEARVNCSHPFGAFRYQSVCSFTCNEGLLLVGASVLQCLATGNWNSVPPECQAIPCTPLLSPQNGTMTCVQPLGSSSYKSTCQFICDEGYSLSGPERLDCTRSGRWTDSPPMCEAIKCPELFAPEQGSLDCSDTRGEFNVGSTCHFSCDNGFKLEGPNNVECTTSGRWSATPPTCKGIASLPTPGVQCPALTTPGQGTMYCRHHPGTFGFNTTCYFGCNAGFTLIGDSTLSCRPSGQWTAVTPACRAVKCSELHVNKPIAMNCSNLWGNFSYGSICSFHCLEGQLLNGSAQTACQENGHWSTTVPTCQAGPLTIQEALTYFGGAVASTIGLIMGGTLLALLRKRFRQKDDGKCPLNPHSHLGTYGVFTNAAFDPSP
Conditions: literature (Nelson et al. 1993; Moore et al. 1991).

In series [2] the target is T2, L-selectin (Homo sapiens, UniProt P14151).
T2 sequence (P14151 39-372): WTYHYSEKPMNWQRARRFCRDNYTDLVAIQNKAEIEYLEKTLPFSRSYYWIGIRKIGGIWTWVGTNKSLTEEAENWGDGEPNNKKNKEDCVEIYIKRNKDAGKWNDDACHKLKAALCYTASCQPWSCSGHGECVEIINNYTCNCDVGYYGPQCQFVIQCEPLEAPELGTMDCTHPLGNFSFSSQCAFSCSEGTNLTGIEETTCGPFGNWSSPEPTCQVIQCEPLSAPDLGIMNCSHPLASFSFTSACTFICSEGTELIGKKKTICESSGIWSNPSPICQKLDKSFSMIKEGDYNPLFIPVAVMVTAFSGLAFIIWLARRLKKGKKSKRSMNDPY
Conditions: literature (Nelson et al. 1993).

Take “NeuAcα2,3Galβ1,4(fucα1,3)GlcNac- [sLe^x]”: the “binding affinity of P-selectin” value in series [1] is listed as “in the mM range”. Moreover, in series [2], the “binding affinity of L-selectin” value is given as “in the mM range”.
